Screens: PubChem BioAssay, Broad Institute
UUG fidelity: yeast start codon fidelity modulation; actives 0.13% (n = 350,000); activity score, % at 18.7 µM; S. cerevisiae UUG-firefly luciferase reporter, luminescence/redox ratio;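 active = replicate mean at a twofold rise or more, about +100% in these data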;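 note: firefly luciferase made from a UUG start codon reports start codon fidelity; reporter light over untreated wells divided by growth signal over untreated wells; some hits fall short of that in this replicate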
INS-1E GSIS act: primary screen for activators of insulin secretion dependent on glucose, INS-1E cells, GLuc reporter luminescence; INS-1E GLuc reporter insulin secretion, 2-3 h; activation, % at 16.6 µM; actives 0.61% (n = 370,000); AID 743287;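 active means lowest replicate activation of at least 40%, so every replicate reaches that level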
SR-BI HDL uptake: inhibitors of mouse SR-BI mediated HDL lipid uptake | Q61009 | ldlA[mSR-BI] CHO cells, DiI-HDL uptake fluorescence, 3 h | inhibition, % at 12.5 µM | actives 0.96% (n = 320,000) | AID 488896;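 active means mean replicate inhibition of at least 70% and a set share of replicates each scoring 70 or more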
SR-BI DiI-HDL act: enhances SR-BI lipid uptake from DiI-HDL. activation, % at 12.5 µM. actives 0.096% (n = 320,000). CHO ldlA[mSR-BI] cells, DiI-HDL uptake fluorescence, 3 h; 100 = double the neutral-control signal;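 active means mean replicate activation of at least 60% and every replicate at or above 60%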
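Test system: SR-BI-overexpressing, LDLR-lacking CHO cells; Also added: labelled HDL, 10 µg/mL; Measured by: bottom-read cell fluorescence after medium removal, ex 550/em 595 nm; Timing: 3 h uptake period with compound, 37 °C; Buffer or medium: F12, 0.5% BSA, 25 mM HEPES; Doses: single compound concentration, delivered by pin transfer.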
Hits are given with their value; i = inactive; nt = no result given. Only some compounds are listed: those with a hit (about 1.3% of all), similar ones and a draw of the others.

SMILES	UUG fidelity	INS-1E GSIS act	SR-BI HDL uptake	SR-BI DiI-HDL act
CN(C)c1cccc(Oc2nc3c(c(=O)n(C)c(=O)n3C)n2C)c1	i	i	89	i
COc1ccc(/C=N/Nc2nncc3ccccc23)c(OC)c1	nt	i	76	i
N/C(=N\N=C\c1ccco1)SC1CC(=O)N(c2ccccc2)C1=O (stereo unspecified)	nt	i	i	i
N/C(=N\N=C\c1ccco1)SC1CC(=O)N(c2ccc(C(=O)O)cc2)C1=O (stereo unspecified)	nt	i	i	60
C[C@@H]1CN([C@@H](C)CO)C(=O)c2cccc(NC(=O)Nc3ccc(F)cc3)c2O[C@H]1CN(C)Cc1ccc(C(=O)Nc2ccccc2N)cc1	nt	i	nt	nt
CCOC(=O)Cn1c(-c2ccccc2)nc2ccccc2c1=O	i	i	i	i
CCOC(=O)Cn1c(=O)n(Cc2ccccc2)c(=O)c2cccnc21	i	179	i	i
CCCCCCn1c(N)c(C#N)c2ccc([N+](=O)[O-])cc2c1=O	nt	i	i	i
CC(C)n1c(N)c(C#N)c2ccc([N+](=O)[O-])cc2c1=O	i	103	i	i
O/N=C/c1ccc2cccc(O)c2n1	i	i	nt	nt
O/N=C/c1ccc2ccccc2n1	i	i	i	82
Cc1cc2c(cc1C)CSC(c1ccc3ccccc3c1O)SC2	nt	nt	i	i
Cc1cc2c(cc1C)CSC(c1c(O)ccc3ccccc13)SC2	i	185	i	i
COc1ccc(Nc2nc(-c3ccc(OC)cc3)cs2)cc1	nt	i	i	i
c1cc2c(cc1Nc1nc(-c3ccc4c(c3)OCO4)cs1)OCCO2	i	nt	i	i
COc1cccc(Nc2nc(-c3ccc4c(c3)OCCO4)cs2)c1	nt	nt	91	i
COc1ccc(-c2csc(Nc3ccc(S(N)(=O)=O)cc3)n2)cc1	i	nt	i	108
COc1ccc(-c2csc(Nc3ccccc3)n2)cc1	nt	i	73	i
C[C@H]1CN([C@@H](C)CO)C(=O)c2cc(NC(=O)Cc3cn(C)c4ccccc34)ccc2O[C@H]1CN(C)Cc1ccc(C(=O)Nc2ccccc2N)cc1	i	i	nt	nt
C/C(=N\NC(=O)CC1N=C(Cc2ccccc2)NNC1=O)c1ccc(Cl)cc1Cl (stereo unspecified)	i	142	i	i
CCN(CCC(=O)O)c1ccccc1	nt	63	i	i
Cn1c(C(=O)N2CCN(Cc3ccc4c(c3)OCO4)CC2)cc2c(=O)n(C)c3ccccc3c21	i	i	76	i
C[C@@H]1CCCCO[C@@H](CN(C)Cc2ccc(C(=O)O)cc2)[C@@H](C)CN([C@@H](C)CO)C(=O)c2cc(NS(=O)(=O)c3ccccc3)ccc2O1	i	i	nt	nt
O=C(NC1Cc2ccccc2C1)[C@@H]1[C@@H](CO)[C@@H]2Cn3c(ccc(-c4ccccc4F)c3=O)[C@H]1N2	nt	i	nt	nt
C=CC[n+]1c(/C=C2\C=Cc3cc(C)ccc3N2CC)ccc2ccccc21	nt	i	80	i
SMILES	UUG fidelity	INS-1E GSIS act	SR-BI HDL uptake	SR-BI DiI-HDL act
CCN1/C(=C/c2ccc3cc(C)cc(C)c3[n+]2CC)Sc2cc(C)ccc21	i	i	i	i
COc1cc(CN(C)c2ccc(S(=O)(=O)N3CCCC3)cn2)ccc1OC(F)F	i	44	i	i
COc1ccc(CCN(C)c2ccc(S(=O)(=O)N3CCCC3)cn2)cc1OC	i	i	i	i
CCCC#Cc1cnc2c(c1)C(=O)N([C@@H](C)CO)C[C@H](C)[C@@H](CN(C)Cc1ccncc1)O2	i	i	nt	nt
C[C@H]1CN([C@@H](C)CO)C(=O)c2cccc(NC(=O)c3cnccn3)c2O[C@H]1CN(C)C(=O)Nc1ccc2c(c1)OCO2	i	i	nt	nt
CCN=C1SC(CC(=O)Nc2ccccc2OCC)C(=O)N1CC (stereo unspecified)	i	nt	i	i
CCCCOc1ccccc1NC(=O)CC1SC(=NCC)N(CC)C1=O (stereo unspecified)	i	nt	84	i
CCN(CC)S(=O)(=O)c1cc(NC(=O)CSc2nc3c(cc2C#N)C(=O)CC(C)(C)C3)ccc1C	i	i	72	i
C[C@H](CO)N1C[C@H](C)[C@@H](CN(C)Cc2ccc(Oc3ccccc3)cc2)Oc2c(NC(=O)C3CCCCC3)cccc2C1=O	i	i	nt	nt
COc1cc(C(=O)Oc2ccccc2/C=N/NC(=O)c2ccc(C)c(Cl)c2)cc(OC)c1OC	nt	i	115	i
COc1cc(/C=N/NC(N)=S)ccc1OCc1ccc(C)cc1	nt	i	i	i
COc1ccc(C(=O)N/N=C/c2ccccc2C(=O)O)cc1OC	i	i	nt	nt
COc1cc(/C=N/NC(N)=S)ccc1OC(=O)c1ccc(C)cc1	nt	i	74	i
COc1cc(/C=N/NC(=O)c2cccnc2)ccc1OC(=O)c1cc(OC)c(OC)c(OC)c1	i	i	73	i
